This test deals with T1, hNav1.2 channels (Homo sapiens, UniProt Q99250).
T1 construct: expressed in transfected cells; host or cells: CHO-K1 (ATCC CCL-61)
Briefly: Patch-clamp (PatchXpress 7000A) on transfected CHO cells, hNav1.2. It counts as cell-based. Particulars: n = 6, mean ± SEM, 2-H exposure limited to 3 min. The source says: To test whether 2-H can act by blocking VGNaCs, the PatchXpress 7000A was used. Mammalian CHO (Chinese hamster ovary) transfected with ion hNav1.2 and hNav1.6 channels cDNAs (SCN2A and SCN8A genes) were exposed to 2-H under both tonic and phasic conditions. The mammalian CHO-K1 epithelial embryonic cell line (ATCC number CCL-61) from Cricetulus griseus was obtained from ATCC, Manassas, VA. CHO-K1 cells were transfected with either hNav1.2 or hNav1.6 channel cDNA (SCN2A and SCN8A genes, respectively) and were exposed to 2-H under both tonic and phasic conditions.
The effects of 2-H were evaluated on hNav1.2 at 0.73, 1.46, 2.19, and 2.92 mg/mL and on hNav1.6 channels at 0.1, 0.36, 0.73, and 1.46 mg/mL, with each concentration tested in at least six cells (n = 6). Cells were exposed to each concentration of 2-H and measurements of the inward current were obtained within the first 3 min of exposure. […] Since the PatchXpress has open cell chambers where the testing occurs, there is no way to hermetically seal the experiment.
Based on this analysis, we estimated the IC50.

The chains behind the UniProt entries cited, without tags or fusion partners.
UniProt Q99250, whole entry: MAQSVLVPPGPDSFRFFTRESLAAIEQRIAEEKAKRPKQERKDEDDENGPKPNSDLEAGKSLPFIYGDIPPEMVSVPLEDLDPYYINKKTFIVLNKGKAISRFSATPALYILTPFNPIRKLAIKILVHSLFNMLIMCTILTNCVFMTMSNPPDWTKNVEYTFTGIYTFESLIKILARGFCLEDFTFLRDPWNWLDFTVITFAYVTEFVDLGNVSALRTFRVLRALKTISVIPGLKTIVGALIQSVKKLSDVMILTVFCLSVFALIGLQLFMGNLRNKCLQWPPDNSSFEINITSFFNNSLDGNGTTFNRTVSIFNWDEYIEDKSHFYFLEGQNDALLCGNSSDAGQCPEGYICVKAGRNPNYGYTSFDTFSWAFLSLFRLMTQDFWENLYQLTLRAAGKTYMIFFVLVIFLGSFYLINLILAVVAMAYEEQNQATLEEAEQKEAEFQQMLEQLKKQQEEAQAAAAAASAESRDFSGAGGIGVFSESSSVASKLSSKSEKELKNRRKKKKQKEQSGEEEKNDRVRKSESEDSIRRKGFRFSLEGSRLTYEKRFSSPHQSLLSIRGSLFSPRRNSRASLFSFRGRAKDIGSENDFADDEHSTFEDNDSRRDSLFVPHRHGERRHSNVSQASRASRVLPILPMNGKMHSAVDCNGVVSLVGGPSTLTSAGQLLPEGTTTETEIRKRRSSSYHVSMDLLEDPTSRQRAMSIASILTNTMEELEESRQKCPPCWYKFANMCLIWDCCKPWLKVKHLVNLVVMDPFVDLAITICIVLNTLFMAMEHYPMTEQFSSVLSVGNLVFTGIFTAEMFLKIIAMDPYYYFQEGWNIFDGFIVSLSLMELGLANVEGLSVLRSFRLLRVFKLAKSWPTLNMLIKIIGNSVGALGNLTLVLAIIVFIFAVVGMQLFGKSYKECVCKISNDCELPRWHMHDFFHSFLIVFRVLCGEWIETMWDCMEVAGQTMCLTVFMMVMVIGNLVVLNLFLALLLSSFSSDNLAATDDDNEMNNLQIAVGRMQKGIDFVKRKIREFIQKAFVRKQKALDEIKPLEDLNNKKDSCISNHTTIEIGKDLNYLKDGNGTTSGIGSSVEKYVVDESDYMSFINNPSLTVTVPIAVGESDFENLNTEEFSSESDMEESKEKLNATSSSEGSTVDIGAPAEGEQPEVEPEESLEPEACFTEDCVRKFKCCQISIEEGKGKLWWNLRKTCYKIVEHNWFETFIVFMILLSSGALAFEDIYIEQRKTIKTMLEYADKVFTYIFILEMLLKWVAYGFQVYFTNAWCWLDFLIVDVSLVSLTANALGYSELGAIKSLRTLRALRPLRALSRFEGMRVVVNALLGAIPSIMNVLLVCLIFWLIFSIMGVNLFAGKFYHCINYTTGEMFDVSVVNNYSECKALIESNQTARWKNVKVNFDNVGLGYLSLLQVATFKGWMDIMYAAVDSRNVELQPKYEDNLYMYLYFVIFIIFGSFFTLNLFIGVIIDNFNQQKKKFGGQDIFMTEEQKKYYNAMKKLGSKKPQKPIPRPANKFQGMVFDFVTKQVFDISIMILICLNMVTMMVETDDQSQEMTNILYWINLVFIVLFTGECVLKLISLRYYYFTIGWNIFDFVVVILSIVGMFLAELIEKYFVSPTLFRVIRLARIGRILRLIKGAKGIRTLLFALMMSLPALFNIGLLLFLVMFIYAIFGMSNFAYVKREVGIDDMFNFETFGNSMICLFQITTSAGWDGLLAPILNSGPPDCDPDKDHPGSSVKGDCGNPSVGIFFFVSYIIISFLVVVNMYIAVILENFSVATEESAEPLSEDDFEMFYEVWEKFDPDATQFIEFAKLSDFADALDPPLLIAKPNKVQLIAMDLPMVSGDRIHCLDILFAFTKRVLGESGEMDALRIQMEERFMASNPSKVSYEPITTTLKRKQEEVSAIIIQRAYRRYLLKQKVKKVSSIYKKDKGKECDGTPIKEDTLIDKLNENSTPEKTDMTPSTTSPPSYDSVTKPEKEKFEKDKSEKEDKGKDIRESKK

pIC50: −log10 of the molar value.

Consider `CCN(CC)CC(=O)Nc1c(C)cccc1C` [lidocaine], for which the pIC50 is 3.37 (hNav1.2 IC50, Phasic Experiment) and 2.95 (hNav1.2 IC50, Tonic Experiment).

(Values after article PMC3472974, “The Bite of the Honeybee: 2-Heptanone Secreted from Honeybee Mandibles during a Bite Acts as a Local Anaesthetic in Insects and Mammals” (PLoS ONE, 2012).)
